According to ChEMBL document CHEMBL1772975, “Novel potent and selective σ ligands: evaluation of their agonist and antagonist properties” (J Med Chem, 2011):

Species: Cavia porcellus
Assay: Selectivity ratio of Ki for sigma 1 receptor in guinea pig brain membranes to Ki for sigma 2 receptor in guinea pig brain membranes
Format: cell membranes

COC(=O)[C@]1(c2ccccc2)C[C@@H]1CN1CCC(O)(c2ccc(Cl)cc2)CC1
Ratio Ki: 5.5

COC(=O)[C@@]1(c2ccccc2)C[C@H]1CN1CCC(O)(c2ccc(Cl)cc2)CC1
Ratio Ki: 4.2
